# Experimental data reported in paper PMC13184244, “Nicotine biosynthesis is completed by cryptic activating glucosylation” (Nature Communications, 2026).
# Sequences of proteins named here, by UniProt entry; tags and fusion partners are left off. Residues count along the entry.
# UniProt P52579, 6-310 limits assumed: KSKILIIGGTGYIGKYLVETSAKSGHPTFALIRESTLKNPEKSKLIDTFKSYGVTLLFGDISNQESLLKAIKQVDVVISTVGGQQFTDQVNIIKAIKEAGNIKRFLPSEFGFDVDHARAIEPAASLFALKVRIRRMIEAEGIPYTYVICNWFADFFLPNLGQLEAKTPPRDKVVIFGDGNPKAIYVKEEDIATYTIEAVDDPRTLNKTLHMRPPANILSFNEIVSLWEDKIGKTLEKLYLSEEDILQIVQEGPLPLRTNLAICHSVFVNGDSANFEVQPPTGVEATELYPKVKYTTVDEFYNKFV
# Molecular target: NaGR (A622) (Nicotiana tabacum, UniProt P52579)
# Conditions: ternary complex with nicotinic acid N-glucoside; HEPES pH 7.5
compound,measurement,value
NC(=O)c1ccc[n+]([C@@H]2O[C@H](COP(=O)(O)OP(=O)(O)OC[C@H]3O[C@@H](n4cnc5c(N)ncnc54)[C@H](OP(=O)(O)O)[C@@H]3O)[C@@H](O)[C@H]2O)c1 [NADP+],"X-ray crystallography, co-crystallisation, 1.3 Å",cofactor NADP^+ bound between the Rossmann fold and the substrate binding domain
